From ChEMBL document CHEMBL1134395, “Angular methoxy-substituted furo- and pyranoquinolinones as blockers of the voltage-gated potassium channel Kv1.3” (J Med Chem, 2001)

By UniProt entry, the sequences of proteins in these tests, tags left out.
UniProt P16390, whole entry: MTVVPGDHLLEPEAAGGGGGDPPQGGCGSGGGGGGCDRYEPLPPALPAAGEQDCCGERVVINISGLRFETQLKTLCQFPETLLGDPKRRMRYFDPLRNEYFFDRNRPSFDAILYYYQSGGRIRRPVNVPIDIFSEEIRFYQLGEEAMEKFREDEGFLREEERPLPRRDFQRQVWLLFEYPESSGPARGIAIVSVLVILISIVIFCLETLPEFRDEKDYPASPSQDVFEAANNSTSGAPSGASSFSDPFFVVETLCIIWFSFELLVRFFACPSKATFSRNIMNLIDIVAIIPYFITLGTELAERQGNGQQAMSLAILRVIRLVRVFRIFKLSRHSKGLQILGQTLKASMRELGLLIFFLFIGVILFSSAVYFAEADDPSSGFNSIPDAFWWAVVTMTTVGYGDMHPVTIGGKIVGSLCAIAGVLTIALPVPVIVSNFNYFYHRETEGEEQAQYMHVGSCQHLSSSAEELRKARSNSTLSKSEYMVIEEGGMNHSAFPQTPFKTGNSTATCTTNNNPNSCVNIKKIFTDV

Experiments:
[1] = target: Potassium voltage-gated channel subfamily A member 3 (Mus musculus) (UniProt P16390)
[2] = target: Potassium voltage-gated channel subfamily A member 3 (Mus musculus) (UniProt P16390); remark: listed apart in the source

S [1]	S [2]	Structure (SMILES)
7.6		COc1ccc2c(c1)c1oc(C(C)C)cc1c(=O)n2C
2.3		COc1ccc2c(c1)c1c(c(=O)n2C)CCC(C)(C)O1
	4.1	COc1cc2nc3occc3c(OC)c2cc1OC [KOKUSAGININE]
3.1		COc1ccc2c(c1)c1c(c(=O)n2C)C=CC(C)(C)O1
